Like-named read-outs stand apart in the source and are kept apart here.
Legend:
[1] = target: Recombinant STAT3 protein (STAT3 (G127-I722)) (Homo sapiens, UniProt P40763); test: STAT3 Fluorescence Polarization (FP) Assay; details: probe 5-FAM-GpYLPQTV-NH2 2 nM, 45-minute incubation
[2] = target: Recombinant STAT6 protein (STAT6 (W123-T658)) (Homo sapiens, UniProt P42226); test: STAT6 Fluorescence Polarization (FP) Assay; details: probe 5-FAM-ApYKPFQDLI-NH2 2 nM, 45-minute incubation
[3] = read-out: STAT3 (FP assay IC50 class), STAT3 (G127-I722) 25 nM
[4] = read-out: STAT6 (FP assay IC50 class), STAT6 (W123-T658) 250 nM
[5] = read-out: STAT3 (FP assay IC50), STAT3 25 nM
[6] = read-out: STAT6 (FP assay IC50), STAT6 250 nM

Protein sequences, listed by entry. Tags and fused reporters are not part of them. Residues count along the entry.
UniProt P40763, 127-722 limits assumed: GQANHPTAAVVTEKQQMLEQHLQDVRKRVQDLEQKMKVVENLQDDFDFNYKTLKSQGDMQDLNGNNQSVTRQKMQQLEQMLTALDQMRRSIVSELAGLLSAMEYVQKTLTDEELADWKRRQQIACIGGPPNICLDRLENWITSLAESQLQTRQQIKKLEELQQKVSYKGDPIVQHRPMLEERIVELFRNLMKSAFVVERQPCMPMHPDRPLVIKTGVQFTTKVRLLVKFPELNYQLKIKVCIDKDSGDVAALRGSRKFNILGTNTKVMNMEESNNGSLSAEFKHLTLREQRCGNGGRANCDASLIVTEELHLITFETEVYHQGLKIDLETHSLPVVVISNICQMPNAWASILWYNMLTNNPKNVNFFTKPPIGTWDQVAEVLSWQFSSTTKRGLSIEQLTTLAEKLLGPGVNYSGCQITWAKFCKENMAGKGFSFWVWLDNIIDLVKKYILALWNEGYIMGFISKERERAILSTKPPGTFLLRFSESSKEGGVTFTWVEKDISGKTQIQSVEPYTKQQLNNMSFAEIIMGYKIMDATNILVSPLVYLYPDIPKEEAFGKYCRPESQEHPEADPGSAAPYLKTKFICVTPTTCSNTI
UniProt P42226, 123-658 limits assumed: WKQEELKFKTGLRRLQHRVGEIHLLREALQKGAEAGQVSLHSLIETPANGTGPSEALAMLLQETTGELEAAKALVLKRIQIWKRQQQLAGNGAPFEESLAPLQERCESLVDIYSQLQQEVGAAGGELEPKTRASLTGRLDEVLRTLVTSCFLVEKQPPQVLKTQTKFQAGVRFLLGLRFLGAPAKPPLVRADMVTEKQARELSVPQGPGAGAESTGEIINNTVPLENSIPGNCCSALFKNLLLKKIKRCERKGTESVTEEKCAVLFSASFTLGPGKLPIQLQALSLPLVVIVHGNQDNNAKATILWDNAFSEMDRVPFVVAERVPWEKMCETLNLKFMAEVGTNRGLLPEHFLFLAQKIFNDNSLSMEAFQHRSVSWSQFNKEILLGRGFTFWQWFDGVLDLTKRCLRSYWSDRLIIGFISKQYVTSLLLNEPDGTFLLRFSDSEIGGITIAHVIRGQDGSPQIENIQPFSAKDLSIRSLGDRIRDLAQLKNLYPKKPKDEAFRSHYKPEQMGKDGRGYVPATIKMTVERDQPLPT

| SMILES | IC50 [1, 3] [nM] | IC50 [2, 4] [nM] | IC50 [1, 5] [nM] | IC50 [2, 6] [nM] |
| --- | --- | --- | --- | --- |
| N#Cc1ccncc1C1CN(C(=O)[C@@H]2CC[C@@H]3CCC[C@H](NC(=O)c4cc5cc(C(F)P(=O)(O)O)ccc5s4)C(=O)N32)C1 (stereo partly shown) | 1000 to 10000 | 3000 to 30000 | – | – |
| O=C(N[C@H]1CCC[C@H]2CC[C@@H](C(=O)N3CC(c4cnccc4N4CC5CC(C4)O5)C3)N2C1=O)c1cc2cc(C(F)P(=O)(O)O)ccc2s1 (stereo partly shown) | < 100 | 3000 to 30000 | – | – |
| O=C(N[C@H]1CCCC[C@H]2CC[C@@H](C(=O)N3CCc4cn[nH]c4C3)N2C1=O)c1cc2cc(C(F)(F)P(=O)(O)O)ccc2s1 | 1000 to 10000 | 300 to 3000 | – | – |
| COC1CN(c2ccncc2C2CN(C(=O)[C@@H]3CC[C@@H]4CCC[C@H](NC(=O)c5cc6cc([C@H](F)P(=O)(O)O)ccc6s5)C(=O)N43)C2)C1 | < 100 | 300 to 3000 | – | – |
| COc1nccc(F)c1C1CN(C(=O)[C@@H]2CC[C@@H]3CCC[C@H](NC(=O)c4cc5cc(CP(=O)(O)O)ccc5s4)C(=O)N32)C1 | 1000 to 10000 | 3000 to 30000 | – | – |
| N#CC1CN(C(=O)[C@@H]2CC[C@@H]3CCCC[C@H](NC(=O)c4ccc5ccc(C(F)(F)P(=O)(O)O)cc5c4)C(=O)N32)CC12C(=O)Nc1ccccc12 (single isomer, unassigned) | – | – | < 100 | < 300 |
| COCCOC1(c2cccnc2)CN(C(=O)[C@@H]2CC[C@@H]3CCCC[C@H](NC(=O)c4cc5cc(C(F)P(=O)(O)O)ccc5s4)C(=O)N32)C1 (stereo partly shown) | < 100 | 3000 to 30000 | – | – |
| Cn1cnnc1C1(F)CN(C(=O)[C@@H]2CC[C@@H]3CCC[C@H](NC(=O)c4cc5cc(C(F)(F)P(=O)(O)O)ccc5s4)C(=O)N32)C1 | 100 to 1000 | 300 to 3000 | – | – |
| Cn1ccc(C2CCN(C(=O)[C@@H]3CC[C@@H]4CCCC[C@H](NC(=O)c5cc6cc(C(F)P(=O)(O)O)ccc6s5)C(=O)N43)C2)cc1=O (stereo partly shown) | 100 to 1000 | 300 to 3000 | – | – |
| C/C1=C/C[C@H](NC(=O)c2ccc3ccc(CP(=O)(O)O)cc3c2)C(=O)N2[C@H](CC[C@H]2C(=O)N2CC(c3ccccc3)CC23CC3)C1 (stereo partly shown) | 1000 to 10000 | 300 to 3000 | – | – |
| CC1C[C@H]2CC[C@@H](C(=O)N3CC(c4cccnc4)C3)N2C(=O)[C@@H](NC(=O)c2cc3cc(C(F)(F)P(=O)(O)O)ccc3s2)C1 (single isomer, unassigned) | – | – | < 100 | 3000 to 30000 |

Source: patent publication US20250215029A1 (Recludix Pharma, Inc., priority 2022, published 2025)
